Literature values in patent US10695378B2, “Direct reprogramming of cells to cardiac myocyte fate” (Duke University, priority 2010, dated 2020).

What was measured:
[1] = tested on: multiple myeloma cells expressing activated JAKs; conditions: cells expressing activated JAKs and STATS

SMILES: CC(C)(C)c1nc2c3ccc(F)cc3c3c(=O)[nH]ccc3c2[nH]1 [JAK inhibitor 1, 2-(1,1-Dimethylethyl)-9-fluoro-3,6-dihydro-7H-benz[h]-imidaz[4,5-f]isoquinolin-7-one]
- IL-2- and IL-4-dependent proliferation of CTLL cells (CTLL cells): inhibits
- growth of multiple myeloma cells [1]: induces the growth inhibition
